# Source: patent US5266599A, “Use of (+)-1-[(3,4,5-trimethoxy)-benzyloxymethyl]-1-phenyl-N,N-dimethyl-n-propy lamine to increase gastric discharge in a subject” (priority 1989, dated 1993)
# Test system: opiate receptors mu, delta and kappa
# Assay type: binding
# Conditions: in vitro
smiles,measurement,value
CN1CC[C@]23c4c5ccc(O)c4O[C@H]2[C@@H](O)C=C[C@H]3[C@H]1C5 [Morphine],"receptor binding affinity to mu, delta and kappa (in words)","showing an affinity to the three receptors studied, with a non-negligible intensity"
